In article PMC9747124 (Clinical and Translational Science, 2022):

Key:
[1] = Population PK model of evobrutinib; format: in vivo, human
[2] = system: patients with RMS; format: in vivo, human

C=CC(=O)N1CCC(CNc2ncnc(N)c2-c2ccc(Oc3ccccc3)cc2)CC1 [evobrutinib, Evobrutinib]
D1 (duration of zero order input) ([1]; final PK model, week 48, fasted): 0.241 h
Increase of duration of the zero-order input with food compared with when fasted ([1]; population PK model covariate effect): 441%
AUC0-24,SS associated with T1 Gd+/T2 lesion reduction ([2]; total T1 Gd+ and new/enlarging T2 lesions at weeks 12-24): 468 ng·h/mL
Exposure (AUC) at which maximal response in T1 Gd+ and new/enlarging T2 lesion count was achieved ([2]; weeks 12-24): > 400 ng·h/mL
